Ab-14 heavy chain CDR variants: yeast mating affinities

Binding partner: SARS-CoV-2 spike HR2 peptide, sequence PDVDLGDISGINAS.

Parent scFv Ab-14: VH joined to VL by a 15-residue (Gly4Ser)3 linker. Changes lie in the heavy chain CDRs alone.
VH: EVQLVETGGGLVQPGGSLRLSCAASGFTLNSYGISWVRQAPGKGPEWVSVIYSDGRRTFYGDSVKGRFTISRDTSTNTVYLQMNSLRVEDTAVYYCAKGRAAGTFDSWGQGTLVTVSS
VL: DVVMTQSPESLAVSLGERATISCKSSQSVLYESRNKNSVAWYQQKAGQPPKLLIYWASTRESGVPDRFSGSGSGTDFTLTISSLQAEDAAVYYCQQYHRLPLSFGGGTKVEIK

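The parent was found by panning a naive human phage display library on the peptide. In library AAYL49, one, two or three CDR residues were substituted; doubles and triples were drawn at random. In AlphaSeq, yeast of one mating type display the scFv and yeast of the other type display the target. Pairs that bind mate more often; barcode pairs of the diploids are counted by sequencing. A regression on co-assayed BCL2-family reference pairs converts the normalised counts of each replicate to an apparent Kd. There are three technical replicates.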

Substitutions are numbered in sequence along the VH above, starting at 1 (not Kabat).
These are single substitutions, in order of position.
The read-out is the apparent dissociation constant on a log10 scale (nM): the lower, the stronger.
A pair that was not seen in that replicate is written "nd"; this usually means weak binding, but a binder can also be missed.
Parent in this assay: reference entry 0.65, copy in this library 4.11 (one replicate of three).
Empty control strains, which show no peptide, gave a signal in 15% of pairings with library AAYL49; the median was 4.06 and 95% of these signals were weaker than 2.83. No background was subtracted. The control count says in how many pairings with the empty strains this scFv gave a signal, with their mean in brackets.

| changes | log10 Kd (nM) by replicate | signal with controls |
|---|---|---|
| G26A | 2.55 3.66 3.15 | 3 of 9 (4.58) |
| G26R | 1.60 1.47 1.64 | 1 of 9 (3.65) |
| G26M | 3.63 nd 3.92 | 2 of 9 (3.86) |
| G26Y | 2.78 2.64 2.81 | 6 of 9 (3.96) |
| G26S | 1.01 1.11 1.02 | 1 of 9 (4.85) |
| G26N | 4.99 nd nd | 3 of 9 (4.68) |
| G26E | 1.06 1.27 1.07 | 3 of 9 (4.13) |
| G26P | 1.61 1.81 1.76 | 1 of 9 (3.90) |
| G26C | 4.27 nd nd | 2 of 9 (4.83) |
| G26T | 5.66 5.17 4.08 | 6 of 9 (4.22) |
| G26F | 2.58 2.37 2.40 | 1 of 9 (3.75) |
| G26I | 2.70 2.40 3.18 | 1 of 9 (3.33) |
| G26H | 1.68 1.54 1.89 | 0 of 9 |
| G26K | 0.63 1.15 0.87 | 0 of 9 |
| G26V | 3.04 1.79 2.97 | 0 of 9 |
| G26L | 1.86 1.97 2.06 | 1 of 9 (2.60) |
| G26D | 1.33 1.21 1.47 | 1 of 9 (3.57) |
| G26W | nd 3.03 3.61 | 0 of 9 |
| F27I | nd nd nd | 0 of 9 |
| F27D | 0.54 0.78 0.74 | 0 of 9 |
| F27L | 4.12 3.57 3.08 | 6 of 9 (4.61) |
| F27K | 1.71 1.80 1.95 | 4 of 9 (4.74) |
| F27Y | 1.53 1.55 1.97 | 1 of 9 (4.76) |
| F27Q | 1.51 1.68 1.25 | 5 of 9 (5.45) |
| F27C | 3.36 2.88 4.04 | 1 of 9 (4.25) |
| F27W | 3.59 3.11 3.35 | 2 of 9 (3.81) |
| F27E | 0.33 0.59 0.37 | 0 of 9 |
| F27A | 1.64 1.94 2.00 | 8 of 9 (4.31) |
| F27H | 1.65 1.61 1.74 | 1 of 9 (3.69) |
| F27N | 1.84 2.00 2.15 | 0 of 9 |
| F27P | 1.09 1.24 1.57 | 4 of 9 (4.44) |
| F27V | 2.71 2.64 2.81 | 3 of 9 (3.39) |
| F27S | 2.23 2.58 2.53 | 4 of 9 (3.49) |
| F27T | 1.30 1.14 1.81 | 1 of 9 (3.11) |
| F27R | 2.06 1.97 2.21 | 2 of 9 (3.84) |
| T28P | 0.63 1.00 0.93 | 2 of 9 (3.55) |
| T28D | 1.11 1.29 0.98 | 2 of 9 (4.53) |

Data: MIT Lincoln Laboratory AlphaSeq set, Engelhart et al. 2022, doi:10.1038/s41597-022-01779-4, as distributed in FLAb.